Legend:
[1] = system: CCCC(=O)Oc1ccc([N+](=O)[O-])cc1; experiment: purified protein; conditions: TurboPETase, 65 °C, pH 8.0, 10 mM potassium phosphate, 0.2-1.4 mM pNPB, 0.5 µg/mL enzyme, 3 min
[2] = system: O=C(O)c1ccc(C(=O)OCCO)cc1; experiment: purified protein; conditions: TurboPETase, 65 °C, pH 8.0, 100 mM potassium phosphate, 6-60 mM MHET, 0.1 mg/mL enzyme, 15 min

**Q.** What does the source list for “BhrPETase (bacterium HR29; A209R/A251C/A281C/D238K/F222I/F243T/H218S/W104L)”?
**A.** Km [1]: 0.60 ± 0.04 mM; kcat [1]: 147.78 ± 4.17 s⁻¹; Km [2]: 33.80 ± 7.23 mM; kcat [2]: 3.67 ± 0.37 s⁻¹
